Active and inactive are the calls of the source. No cut-off for these calls is given here.
Tests used:
[1] = organism: Rattus norvegicus; experiment: Displacement of [3H]-AMPA from AMPA glutaminergic receptor in rat cerebral cortex at 10 uM; format: tissue-based
[2] = Inhibition of protein kinase A at 100 uM
[3] = biological target: D(3) dopamine receptor (Homo sapiens) (UniProt P35462); experiment: Displacement of [3H]spiperone form human recombinant D3 receptor expressed in CHO cells at 10 uM; format: cell-based
[4] = organism: Rattus norvegicus; experiment: Displacement of [3H]cytisine from alpha-BGTX-insensitive neuronal nicotinic receptor in rat cerebral cortex at 10 uM; format: tissue-based
[5] = biological target: Adrenergic receptor alpha-2 (Rattus norvegicus) (UniProt P22086+P19328+P22909); experiment: Displacement of [3H]-RX821002 from adrenergic A2 receptor in rat cerebral cortex at 10 uM; format: tissue-based
[6] = organism: Rattus norvegicus; experiment: Displacement of [3H]-CGP39653 from NMDA glutaminergic receptor in rat cerebral cortex at 10 uM; format: tissue-based
[7] = Inhibition of GSK3 in granule cerebellar neurons assessed as decrease of tau phosphorylation at Ser396 at 25 uM after 16 hrs by Western blot analysis
[8] = organism: Rattus norvegicus; experiment: Displacement of [3H]serotonine from 5-HT receptor in rat cerebral cortex at 10 uM; format: tissue-based
[9] = biological target: Calcium/calmodulin-dependent protein kinase kinase 2 (Rattus norvegicus) (UniProt O88831); experiment: Inhibition of rat brain CAM kinase 2 using autocamtide as substrate and [gamma-33P] at 10 uM by scintillation counting
[10] = biological target: Proto-oncogene tyrosine-protein kinase Src (Homo sapiens) (UniProt P12931); experiment: Inhibition of Src kinase at 10 uM
[11] = Inhibition of GSK3 in granule cerebellar neurons assessed as […] of tau phosphorylation at 25 uM after 16 hrs by Western blot analysis
[12] = organism: Bos taurus; experiment: Inhibition of bovine thymus protein kinase p56 using poly GT as substrate and [gamma-33P]ATP at 10 uM by scintillation counting
[13] = biological target: D(2) dopamine receptor (Homo sapiens) (UniProt P14416); experiment: Displacement of [3H]spiperone form human recombinant D2 receptor expressed in CHO cells at 10 uM; format: cell-based
[14] = biological target: Epidermal growth factor receptor (Homo sapiens) (UniProt P00533); experiment: Inhibition of EGFR kinase in human A431 cells using poly GAT as substrate and [gamma-33P]ATP at 10 uM by scintillation counting; format: cell-based; conditions: A-431
[15] = biological target: Insulin receptor (Homo sapiens) (UniProt P06213); experiment: Inhibition of human recombinant IRK using poly GT as substrate and [gamma-33P]ATP at 10 uM by scintillation counting

Protein sequences, listed by entry. Tags and fused reporters are not part of them.
UniProt P35462, whole entry, looked up: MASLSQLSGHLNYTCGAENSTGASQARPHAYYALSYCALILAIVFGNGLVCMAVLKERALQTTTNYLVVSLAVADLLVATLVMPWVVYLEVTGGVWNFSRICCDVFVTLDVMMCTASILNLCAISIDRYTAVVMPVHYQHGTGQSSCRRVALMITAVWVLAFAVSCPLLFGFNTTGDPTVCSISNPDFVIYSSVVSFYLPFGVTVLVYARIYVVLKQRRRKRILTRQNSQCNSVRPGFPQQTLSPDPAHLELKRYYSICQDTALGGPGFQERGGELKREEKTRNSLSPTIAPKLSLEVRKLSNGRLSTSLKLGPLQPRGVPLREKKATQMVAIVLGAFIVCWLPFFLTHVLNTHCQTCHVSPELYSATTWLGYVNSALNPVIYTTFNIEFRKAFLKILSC
UniProt P22086, whole entry, looked up: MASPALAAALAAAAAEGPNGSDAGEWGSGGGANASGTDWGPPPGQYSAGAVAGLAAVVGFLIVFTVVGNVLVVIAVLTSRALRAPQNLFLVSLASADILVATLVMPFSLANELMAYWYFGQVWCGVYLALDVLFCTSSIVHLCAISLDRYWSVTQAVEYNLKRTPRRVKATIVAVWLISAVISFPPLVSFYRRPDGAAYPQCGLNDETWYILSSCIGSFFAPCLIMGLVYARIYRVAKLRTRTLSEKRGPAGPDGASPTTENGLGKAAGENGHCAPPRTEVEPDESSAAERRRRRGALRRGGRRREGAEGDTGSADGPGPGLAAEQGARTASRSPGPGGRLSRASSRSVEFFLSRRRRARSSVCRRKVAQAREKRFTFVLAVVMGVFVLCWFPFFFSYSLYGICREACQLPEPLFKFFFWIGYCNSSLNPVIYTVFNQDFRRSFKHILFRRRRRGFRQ
UniProt P19328, whole entry, looked up: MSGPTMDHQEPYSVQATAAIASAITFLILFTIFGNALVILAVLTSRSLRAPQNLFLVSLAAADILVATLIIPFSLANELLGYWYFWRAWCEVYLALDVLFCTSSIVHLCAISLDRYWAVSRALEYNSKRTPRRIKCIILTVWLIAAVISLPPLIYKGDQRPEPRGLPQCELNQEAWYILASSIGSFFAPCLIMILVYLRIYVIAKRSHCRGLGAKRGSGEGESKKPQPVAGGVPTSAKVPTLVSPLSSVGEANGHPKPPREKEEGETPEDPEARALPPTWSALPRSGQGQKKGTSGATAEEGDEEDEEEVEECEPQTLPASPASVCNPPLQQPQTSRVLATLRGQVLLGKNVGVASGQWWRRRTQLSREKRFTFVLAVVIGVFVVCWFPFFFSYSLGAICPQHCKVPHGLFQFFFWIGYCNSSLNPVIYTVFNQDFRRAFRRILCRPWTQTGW
UniProt P22909, whole entry, looked up: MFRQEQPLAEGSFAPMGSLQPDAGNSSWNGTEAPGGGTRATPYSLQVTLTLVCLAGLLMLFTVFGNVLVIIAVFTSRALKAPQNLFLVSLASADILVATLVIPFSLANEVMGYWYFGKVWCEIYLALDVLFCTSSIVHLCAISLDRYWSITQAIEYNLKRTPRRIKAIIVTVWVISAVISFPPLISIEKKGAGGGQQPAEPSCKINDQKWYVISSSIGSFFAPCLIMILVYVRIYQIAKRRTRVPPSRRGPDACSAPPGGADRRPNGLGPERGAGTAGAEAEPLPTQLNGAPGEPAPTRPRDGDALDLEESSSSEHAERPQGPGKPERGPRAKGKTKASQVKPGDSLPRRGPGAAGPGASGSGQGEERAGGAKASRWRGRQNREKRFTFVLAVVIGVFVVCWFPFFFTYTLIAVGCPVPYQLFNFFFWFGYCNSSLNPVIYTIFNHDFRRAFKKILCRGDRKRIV
UniProt O88831, whole entry, looked up: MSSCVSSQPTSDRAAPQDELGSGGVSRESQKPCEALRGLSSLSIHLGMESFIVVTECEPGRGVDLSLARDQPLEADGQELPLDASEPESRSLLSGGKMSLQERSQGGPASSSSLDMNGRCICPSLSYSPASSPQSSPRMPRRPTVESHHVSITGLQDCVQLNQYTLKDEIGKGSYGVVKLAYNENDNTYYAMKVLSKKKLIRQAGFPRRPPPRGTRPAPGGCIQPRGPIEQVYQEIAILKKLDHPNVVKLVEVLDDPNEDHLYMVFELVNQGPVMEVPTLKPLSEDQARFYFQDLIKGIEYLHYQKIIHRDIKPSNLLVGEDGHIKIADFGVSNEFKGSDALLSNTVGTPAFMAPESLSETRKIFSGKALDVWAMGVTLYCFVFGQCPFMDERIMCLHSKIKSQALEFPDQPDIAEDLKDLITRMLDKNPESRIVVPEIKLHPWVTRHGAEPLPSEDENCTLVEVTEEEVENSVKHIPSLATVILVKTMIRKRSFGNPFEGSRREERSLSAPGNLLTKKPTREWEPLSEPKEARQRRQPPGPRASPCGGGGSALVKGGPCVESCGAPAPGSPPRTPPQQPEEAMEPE
UniProt P14416, whole entry, looked up: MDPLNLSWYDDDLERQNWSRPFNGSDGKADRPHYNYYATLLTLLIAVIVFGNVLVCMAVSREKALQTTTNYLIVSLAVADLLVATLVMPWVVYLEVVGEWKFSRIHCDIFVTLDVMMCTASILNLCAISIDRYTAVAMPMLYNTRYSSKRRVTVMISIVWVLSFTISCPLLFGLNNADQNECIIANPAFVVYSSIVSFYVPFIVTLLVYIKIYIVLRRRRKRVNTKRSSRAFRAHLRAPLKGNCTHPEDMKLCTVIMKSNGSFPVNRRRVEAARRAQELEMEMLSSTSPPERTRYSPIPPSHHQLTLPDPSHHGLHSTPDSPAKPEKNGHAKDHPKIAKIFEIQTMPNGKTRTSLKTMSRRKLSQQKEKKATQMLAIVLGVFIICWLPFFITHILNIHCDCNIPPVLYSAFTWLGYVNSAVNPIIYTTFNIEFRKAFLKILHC
UniProt P06213, whole entry, looked up: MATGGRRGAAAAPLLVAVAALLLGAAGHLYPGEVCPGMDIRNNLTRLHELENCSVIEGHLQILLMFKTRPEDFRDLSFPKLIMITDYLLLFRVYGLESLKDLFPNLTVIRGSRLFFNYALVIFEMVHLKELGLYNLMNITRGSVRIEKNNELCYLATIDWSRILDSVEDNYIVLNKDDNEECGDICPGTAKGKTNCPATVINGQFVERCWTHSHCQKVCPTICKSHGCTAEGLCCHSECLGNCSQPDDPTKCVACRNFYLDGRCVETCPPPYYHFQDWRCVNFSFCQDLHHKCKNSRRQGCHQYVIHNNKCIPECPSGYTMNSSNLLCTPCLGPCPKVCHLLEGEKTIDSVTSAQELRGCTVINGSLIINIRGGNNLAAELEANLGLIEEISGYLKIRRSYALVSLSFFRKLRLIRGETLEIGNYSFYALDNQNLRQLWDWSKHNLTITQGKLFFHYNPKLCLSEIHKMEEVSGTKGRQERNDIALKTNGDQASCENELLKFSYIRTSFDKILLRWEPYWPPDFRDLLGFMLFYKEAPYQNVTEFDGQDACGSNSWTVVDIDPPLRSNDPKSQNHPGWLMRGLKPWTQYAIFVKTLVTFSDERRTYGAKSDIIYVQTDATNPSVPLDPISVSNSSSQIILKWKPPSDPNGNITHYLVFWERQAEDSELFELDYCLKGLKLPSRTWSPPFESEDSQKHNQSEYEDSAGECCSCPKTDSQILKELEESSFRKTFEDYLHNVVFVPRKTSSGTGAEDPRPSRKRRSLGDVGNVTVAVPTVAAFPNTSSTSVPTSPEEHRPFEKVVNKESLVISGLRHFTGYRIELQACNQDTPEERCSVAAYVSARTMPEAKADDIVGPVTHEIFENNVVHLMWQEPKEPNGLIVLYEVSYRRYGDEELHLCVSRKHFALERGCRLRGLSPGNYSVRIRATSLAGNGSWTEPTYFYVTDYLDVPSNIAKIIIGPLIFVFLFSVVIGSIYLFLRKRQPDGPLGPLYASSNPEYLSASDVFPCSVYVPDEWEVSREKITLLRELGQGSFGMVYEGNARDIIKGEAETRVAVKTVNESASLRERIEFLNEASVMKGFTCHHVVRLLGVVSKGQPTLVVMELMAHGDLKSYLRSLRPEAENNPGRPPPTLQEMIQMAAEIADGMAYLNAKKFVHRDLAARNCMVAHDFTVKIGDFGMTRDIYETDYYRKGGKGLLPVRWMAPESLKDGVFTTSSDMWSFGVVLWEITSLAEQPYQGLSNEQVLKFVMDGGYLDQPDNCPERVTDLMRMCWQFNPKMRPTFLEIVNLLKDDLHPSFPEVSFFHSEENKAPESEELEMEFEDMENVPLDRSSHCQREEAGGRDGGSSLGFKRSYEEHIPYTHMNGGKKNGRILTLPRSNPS

With `Cc1ccc(C(=O)CBr)cc1` the inhibition [1] was less than 10%, the inhibition [2] was “inactive” and the inhibition [3] was less than 10%. The inhibition [4] was less than 10%, the inhibition [5] was 10% and the inhibition [6] was less than 10%. For the same compound, the inhibition [7] was “Active”, the inhibition [8] was less than 10% and the inhibition [9] was 15%. For the same compound, the inhibition [10] was 69%, the inhibition [11] was “Active” and the inhibition [12] was 38%. For the same compound, the inhibition [13] was less than 10%, the inhibition [14] was 10% and the inhibition [15] was less than 10%.
With `COc1ccc(C(=O)CBr)cc1` the inhibition [7] was “Active” and the inhibition [11] was “Active”.

Reference: ChEMBL document CHEMBL1800071, “Switching reversibility to irreversibility in glycogen synthase kinase 3 inhibitors: clues for specific design of new compounds” (J Med Chem, 2011)
